# In PubChem BioAssay AID602163 (The Scripps Research Institute Molecular Screening Center, 2012):
# The entries are a selection whose mix differs from that of the whole data set. The source made the active and inactive calls. No stated cut-off is given here; in the data, active means activation above about 7.5%; inactive means the rest.
# Test system: Methionine sulfoxide reductase A (Bos taurus)
# Assay: activation of methionine sulfoxide reductase A – biochemical, absorbance, bovine, HTS, primary screen (AID 602163);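 further: 0% = vehicle and 100% = reference activator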
# Details: purified bovine MsrA, absorbance read-out; at 10.6 µM; active compounds read high
row,SMILES,activation
1,C(Cc1nn[nH]n1)Cc1nn[nH]n1,inactive: -6.63%
2,Nc1ccc([As](=O)(O)c2ccc([N+](=O)[O-])cc2)cc1,inactive: 0.3%
3,O=C(OC1CN2CCC1CC2)c1cccc(Cl)c1 (stereo unspecified),inactive: 1.93%
4,O=[N+]([O-])c1ccc(O)c(/C=N/Nc2ccc([N+](=O)[O-])cc2[N+](=O)[O-])c1,inactive: -1.78%
5,O=[N+]([O-])c1ncn(CCn2cnc([N+](=O)[O-])n2)n1,inactive: -3.83%
6,CC(=O)NC(SC(=S)N(C)C)C(Cl)(Cl)Cl (stereo unspecified),inactive: -7.01%
7,O=[As](O)(c1ccccc1)c1ccc(O)cc1,inactive: -7.48%
8,C[C@H]1OP(=O)(Oc2ccccc2)[C@H](O)[C@H](O)[C@H]1N=[N+]=[N-] (stereo partly specified),inactive: -2.34%
9,O=P(Nc1nc2ccccc2s1)(c1ccccc1)c1ccccc1,inactive: -3%
10,COc1ccc(N)c([N+](=O)[O-])c1[N+](=O)[O-],inactive: -2.31%
11,Nc1ccc(CCCCOc2ccccc2)cc1,inactive: -6.99%
12,O=P(Nc1ccccn1)(c1ccc(Br)cc1)c1ccc(Br)cc1,inactive: -0.33%
13,CN(C)C1(CNC(=O)c2ccc(Cl)c(S(N)(=O)=O)c2)CCCCC1,inactive: -1.76%
14,c1nnnn1CCn1cnnn1,inactive: -6%
15,CC(C)C(=O)NC(Sc1ccccc1)C(Cl)(Cl)Cl (stereo unspecified),inactive: -2.46%
16,O=P(Nc1nccs1)(c1ccccc1)c1ccccc1,inactive: 4.85%
17,CC(=O)Nc1ccc(Oc2c([N+](=O)[O-])cc([N+](=O)[O-])cc2[N+](=O)[O-])cc1,inactive: -5.18%
18,CC(=O)Nc1ccc([As](=O)(O)O)c(O)c1,inactive: -4.86%
19,COC(=O)C1(C)COP(=O)(NCc2ccccc2)OC1 (stereo unspecified),inactive: -3.53%
20,CC(=O)c1ccc(N2CC2c2ccncc2)cc1 (stereo unspecified),inactive: -4%
21,N#C/C(=C\c1ccc(N(CCBr)CCBr)cc1)C(N)=O,inactive: -4.01%
22,C[C@H]1OP(=O)(Oc2ccccc2)C[C@@H]2O[C@@H]21 (stereo partly specified),inactive: -1.59%
23,C[C@@H]1C=CCP(=O)(Oc2ccccc2)O1 (stereo partly specified),inactive: -2.81%
24,Cc1ccccc1CN(C)C(=O)COC(=O)C(O)(c1ccccc1)c1ccccc1,inactive: -11.1%
25,CCc1cc(O)c([N+](=O)[O-])c(C)c1[N+](=O)[O-],inactive: -2.21%
26,CC(C)(C)C(=O)NC(Sc1ccccc1)C(Cl)(Cl)Cl (stereo unspecified),inactive: 3.77%

row,SMILES,activation
1,CCOc1ccc(C2=NCC(CBr)S2)cc1 (stereo unspecified),inactive: 1.63%
2,O=P1(Nc2nc3ccc(Cl)cc3s2)COc2ccccc2O1 (stereo unspecified),inactive: -1.39%
3,O=c1c2cc([N+](=O)[O-])ccc2[nH]c2c([N+](=O)[O-])cc([N+](=O)[O-])cc12,inactive: -3.07%
4,CN(C)C(=O)Oc1noc2ccccc12,inactive: -2.42%
5,CC(NC(=O)COC(=O)C(O)(c1ccccc1)c1ccccc1)c1ccccc1 (stereo unspecified),inactive: -0.23%
6,Cc1ccccc1OP(=O)(Nc1ccccn1)Oc1ccccc1C,inactive: -7.44%
7,Cc1ccc(OP(=O)(Nc2ccccn2)Oc2ccc(C)cc2)cc1,inactive: -3.21%
8,CC(=O)NC(SC(=S)N(CC(C)C)CC(C)C)C(Cl)(Cl)Cl (stereo unspecified),inactive: -0.23%
9,COC(=O)c1cc2c(s1)N=C(c1ccccc1)N(C)P2(=O)N1CCOCC1 (stereo unspecified),inactive: -0.3%
10,CCC(=O)N1C2C3N(C(=O)CC)C1C1N(C(=O)CC)C(C(N1C(=O)CC)N3C(=O)CC)N2C(=O)CC,inactive: 0.89%
11,O=C(OC1CN2CCC1CC2)c1ccccc1 (stereo unspecified),inactive: 2.64%
12,O=P1(N(CCCl)CCCl)OCCC2CCCCN21 (stereo unspecified),inactive: 1.84%
13,CCNC(=S)/N=C(\N)N[N+](=O)[O-],inactive: -2.04%
14,O=C(NC1CCS(=O)(=O)C1)NP(=S)(Oc1ccccc1)Oc1ccccc1 (stereo unspecified),inactive: -0.05%
15,Cc1ccc(NP(=O)(Oc2cccc(C)c2)Oc2cccc(C)c2)nc1,inactive: -1.88%
16,c1ccc(-c2nn[nH]n2)c(-c2nn[nH]n2)c1,inactive: -1.52%
17,CCN(N=Nc1nonc1N)c1nonc1N,inactive: -5.49%
18,Nc1cccc2ccc([As](=O)(O)O)cc12,inactive: -2.39%
19,Cc1ccc(NP(=O)(Oc2ccccc2F)Oc2ccccc2F)nc1,inactive: -1.13%
20,Cc1cc(SC(NC(=O)c2ccc(F)cc2)C(Cl)(Cl)Cl)ncn1 (stereo unspecified),inactive: 3.11%
21,CCOP(=O)(Nc1ccccc1)OCC,inactive: 1.83%
22,CCCC1OP(N)(=O)OCC1CC (stereo unspecified),inactive: -1.18%
23,CC(=O)Nc1ccc([As](=O)(O)O)cc1,inactive: -2.12%
24,O=C(O)c1ccccc1[As](=O)(O)O,inactive: -5.83%
25,O=P(Nc1nc2ccc(Cl)cc2s1)(c1ccccc1)c1ccccc1,inactive: -2.17%
26,CN(C)P(=O)(N(C)C)n1c(Nc2ccccc2)nnc1-c1ccccc1,inactive: 0%

row,SMILES,activation
1,O=[N+]([O-])C1C(O)C(O)C([N+](=O)[O-])C(O)C1O (stereo unspecified),inactive: -2.87%
2,Nc1cc(N)c2nonc2c1[N+](=O)[O-],inactive: -5.08%
3,CC(C)CC(=O)NC(Sc1ccc(Cl)cc1)C(Cl)(Cl)Cl (stereo unspecified),inactive: -3.8%
4,O=C(NC(Sc1ccncn1)C(Cl)(Cl)Cl)c1ccccc1 (stereo unspecified),active: 13.5%
5,Oc1ccccc1CNc1ccccn1,inactive: -8.51%
6,Cc1ccc(OP(=O)(Nc2nccs2)Oc2ccc(C)cc2)cc1,inactive: -3.12%
7,COc1ccccc1OP(=O)(Nc1ccc(C)cn1)Oc1ccccc1OC,inactive: -5.2%
8,CN1CCCC(OC(=O)C(c2ccccc2)c2ccccc2)C1 (stereo unspecified),inactive: -2.04%
9,Clc1ccc(Cl)c(NC2=NCC(CBr)S2)c1 (stereo unspecified),inactive: -1.22%
10,NC(=O)c1cc([N+](=O)[O-])cc([N+](=O)[O-])c1N,inactive: -3.92%
11,Cc1ccc(N/C(=N/P(=O)(N2CCOCC2)N2CCOCC2)N2CCOCC2)cc1,inactive: -1.44%
12,CN(C)C(=O)OCCc1n(C)cc[n+]1C,inactive: -4.2%
13,CC(C)c1nc(Nc2ccccc2)n(P(=O)(N(C)C)N(C)C)n1,inactive: 0.42%
14,CC(C)=N/N=C(\N)N[N+](=O)[O-],inactive: -1.3%
15,CC1CCN(C(=O)Oc2c(Cl)cc(Cl)c3cccnc23)CC1,inactive: -2.15%
16,c1cc(-c2nn[nH]n2)ccc1-c1nn[nH]n1,inactive: -2.6%
17,C[N+]1=C2C=CC=CC=C2SC12C([N+](=O)[O-])=CC([N+](=O)[O-])=C[C-]2[N+](=O)[O-] (stereo unspecified),inactive: 0.17%
18,Nc1ccc([As](=O)(O)c2ccc(N)cc2)cc1,inactive: -14.5%
19,CCN(/C(=N/P(=O)(N1CCOCC1)N1CCOCC1)N1CCOCC1)c1ccc(OC)cc1,inactive: -3.29%
20,O=[N+]([O-])c1cccc2n[nH]nc12,inactive: -3.73%
21,CC(=O)N1C2C3N(C(C)=O)C1C1N(C(C)=O)C(C(N1C(C)=O)N3C(C)=O)N2C(C)=O,inactive: 0.96%
22,CCc1nc2c(n1)c1c(non1O)c1c2no[n+]1[O-],inactive: -2.48%
23,O=[N+]([O-])c1cc([N+](=O)[O-])c(CCNc2ccccc2)c([N+](=O)[O-])c1,inactive: 0.14%
24,Cc1ccc(NP(=O)(Oc2ccccc2)Oc2ccccc2)nc1,inactive: 2.61%
25,COc1ccc(C2=NCC(CBr)S2)cc1 (stereo unspecified),inactive: -3.15%
26,COC(=O)C1(C)COP(=O)(Nc2ccccc2)OC1 (stereo unspecified),inactive: -3.63%

row,SMILES,activation
1,O=[N+]([O-])c1cccc(NC2=NCC(CBr)S2)c1 (stereo unspecified),inactive: -5%
2,O=C(O)CNc1ccc([As](=O)(O)O)cc1,inactive: 1.76%
3,CC(C)(C)C(=O)NC(Sc1ccncn1)C(Cl)(Cl)Cl (stereo unspecified),active: 9.3%
4,O=[N+]([O-])c1ncn(CCn2ncnc2[N+](=O)[O-])n1,inactive: -2.84%
5,O=C(Nc1cc([As](=O)(O)O)ccc1O)c1ccccc1,inactive: -3.64%
6,O=P1(N(CCCl)CCCl)OCCCS1 (stereo unspecified),inactive: -3.81%
7,O=[N+]([O-])c1ccc(Nc2ccc(Oc3ccc([N+](=O)[O-])cc3[N+](=O)[O-])cc2)c([N+](=O)[O-])c1,inactive: 0.23%
8,O=P(Nc1ccccn1)(c1cccc2ccccc12)c1cccc2ccccc12,inactive: -1.52%
9,Cc1cc(SC(NC=O)C(Cl)(Cl)Cl)ncn1 (stereo unspecified),inactive: -1.18%
10,CCOC(=O)Nc1cccc([As](=O)(O)O)c1,inactive: -12%
11,Cc1cc(SC(NC(=O)c2ccccc2)C(Cl)(Cl)Cl)nc(C(C)C)n1 (stereo unspecified),inactive: -11.4%
12,CCCCOc1ccc(C(=O)NCC2(N3CCCCC3)CCCCC2)cc1OC,inactive: -0.64%
13,COP(=O)(OC)N1CC1c1ccccc1 (stereo unspecified),inactive: -1.65%
14,CC1CCNP(=O)(N(CCCl)CCCl)O1 (stereo unspecified),inactive: 2.12%
15,CCOC(=O)Nc1ccc([As](=O)(O)O)c(O)c1,inactive: -2.43%
16,O=C(O)C(O)c1ccc(N(CCCl)CCCl)cc1 (stereo unspecified),inactive: -3.82%
17,CCC(C)N(CC(C)C)C(=S)SC(NC(C)=O)C(Cl)(Cl)Cl (stereo unspecified),inactive: 0.64%
18,CCOC(=O)c1ccc(NC(=O)C(C)(CCl)SC)cc1 (stereo unspecified),inactive: -4.26%
19,CSc1ccc(Nc2c([N+](=O)[O-])cc([N+](=O)[O-])cc2[N+](=O)[O-])cc1,inactive: 3.19%
20,O=C(OC1CN2CCC1CC2)c1cccc([N+](=O)[O-])c1 (stereo unspecified),inactive: -3.11%
21,O=C(Nc1ccncc1[N+](=O)[O-])c1ccc([N+](=O)[O-])cc1[N+](=O)[O-],inactive: 0.95%
22,O=C(COc1ccccc1)OC1CN2CCC1CC2 (stereo unspecified),inactive: -3.24%
23,O=C(O)C(=O)c1ccc(N(CCCl)CCCl)cc1,inactive: -4.3%
